Results on one molecule are retold here after patent US12600725B2 (Memorial Sloan-Kettering Cancer Center, priority 2013, dated 2026).

Chains of the proteins cited; added tags and fusions are not shown. Lines headed by an entry give the natural chain unless they say otherwise; changes in a name come on top.
UniProt P41148: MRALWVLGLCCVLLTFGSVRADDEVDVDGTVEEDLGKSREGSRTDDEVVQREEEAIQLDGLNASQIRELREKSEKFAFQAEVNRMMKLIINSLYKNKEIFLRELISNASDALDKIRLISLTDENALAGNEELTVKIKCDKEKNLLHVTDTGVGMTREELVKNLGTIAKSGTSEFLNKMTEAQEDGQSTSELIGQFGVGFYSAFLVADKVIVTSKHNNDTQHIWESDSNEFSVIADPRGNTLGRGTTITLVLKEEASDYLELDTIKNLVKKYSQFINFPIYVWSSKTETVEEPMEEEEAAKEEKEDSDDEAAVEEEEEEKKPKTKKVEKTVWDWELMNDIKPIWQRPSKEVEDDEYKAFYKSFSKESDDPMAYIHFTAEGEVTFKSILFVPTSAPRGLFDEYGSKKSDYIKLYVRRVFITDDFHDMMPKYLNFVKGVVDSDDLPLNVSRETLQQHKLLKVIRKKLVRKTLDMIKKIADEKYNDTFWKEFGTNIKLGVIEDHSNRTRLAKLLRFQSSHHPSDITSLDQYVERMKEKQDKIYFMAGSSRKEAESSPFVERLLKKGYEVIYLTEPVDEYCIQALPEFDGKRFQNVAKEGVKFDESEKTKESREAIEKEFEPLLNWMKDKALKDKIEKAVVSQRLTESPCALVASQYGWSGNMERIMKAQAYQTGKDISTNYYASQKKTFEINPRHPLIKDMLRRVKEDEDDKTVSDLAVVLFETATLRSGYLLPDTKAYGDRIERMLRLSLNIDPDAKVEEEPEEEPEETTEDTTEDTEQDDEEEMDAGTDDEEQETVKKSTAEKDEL

For the assay, the target named is Grp94 (Canis lupus familiaris, UniProt P41148). Conditions: read-out: Grp94; FP competition, 6 nM Cy3B-GM, 10 nM protein, 4° C. for 24 h.

With `C#CCCCn1c(Sc2cc(C)ccc2C)nc2c(N)ncnc21` [PU-H27], the IC50 was 1.14 ± 0.14 µM.
